The target of assay [1] is human A3 receptor (Homo sapiens, UniProt P0DMS8). As to the kind of experiment: Displacement binding of [3H]CPX, yeast membranes expressing hA3R. Conditions: read-out: IC50 [nM] hA3R, 0.4 nM [3H]CPX.
Assay [2] deals with human A1 adenosine receptor (Homo sapiens, UniProt P30542). In words: fus1-LacZ β-galactosidase assay, agonist stimulation. The assay is classed as cell-based. Also noted: yeast alpha-factor (MFalpha1) prepro leader (N, cleaved yes); expressed in transfected cells; host or cells: Saccharomyces cerevisiae (strain CY12660 and related strains carrying plasmid p5095). Conditions: NECA concentration of 10^−8 M.

Amino acid sequences for entries named in this document (tags omitted).
UniProt P0DMS8, whole entry: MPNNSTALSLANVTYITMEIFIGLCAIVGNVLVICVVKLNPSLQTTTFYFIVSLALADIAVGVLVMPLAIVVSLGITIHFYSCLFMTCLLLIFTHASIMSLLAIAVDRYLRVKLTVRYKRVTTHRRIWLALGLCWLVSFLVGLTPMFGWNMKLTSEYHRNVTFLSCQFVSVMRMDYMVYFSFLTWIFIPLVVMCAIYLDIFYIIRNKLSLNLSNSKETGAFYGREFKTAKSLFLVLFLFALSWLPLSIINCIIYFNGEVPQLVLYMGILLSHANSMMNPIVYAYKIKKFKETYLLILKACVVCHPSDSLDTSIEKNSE
UniProt P30542, whole entry: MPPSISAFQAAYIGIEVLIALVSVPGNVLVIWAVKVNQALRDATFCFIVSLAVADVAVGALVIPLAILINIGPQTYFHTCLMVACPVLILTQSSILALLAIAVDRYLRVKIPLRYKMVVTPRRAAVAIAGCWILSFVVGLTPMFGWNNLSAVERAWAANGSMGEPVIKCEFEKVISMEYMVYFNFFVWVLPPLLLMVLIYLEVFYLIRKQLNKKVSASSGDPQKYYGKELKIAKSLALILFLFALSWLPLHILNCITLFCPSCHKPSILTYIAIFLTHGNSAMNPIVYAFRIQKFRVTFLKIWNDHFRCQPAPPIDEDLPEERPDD

Consider two molecules from patent publication US6664252B2, “4-aminopyrrolo[2,3-d]pyrimidine compounds specific to adenosine A2a receptor and uses thereof” (OSI Pharmaceuticals, Inc., priority 1999, dated 2003).

As to `CC(Cc1ccccc1)Nc1ncnc2c1ncn2[C@@H]1O[C@H](CO)[C@@H](O)[C@H]1O` (single isomer, unassigned; (-)), the IC50 in assay [1] amounted to 23.6 nM.
In the case of `CCNC(=O)[C@H]1O[C@@H](n2cnc3c(N)ncnc32)[C@H](O)[C@@H]1O` [NECA, 5′-N-ethylcarboxamidoadenosine], in assay [2], the “stimulation of β-galactosidase activity” value is on record as “approximately 2 fold”.

As usually defined, the IC50 is the concentration that gives 50% inhibition.
